{"source": "patent US20230242679A1", "about": "“BISPECIFIC ANTIBODY THERAPIES” (priority 2022, published 2023)", "tested_on": "CRS in SCID or humanized mice with Raji-luc tumor cells", "assay": "Mouse model of Raji-luc tumor with CAR-T induced CRS (Example 2)", "conditions": "IP, BID for 7 days, start 5 hours prior to CAR-T cell transfer", "data": [{"smiles": "CC#CC[C@H](C)[C@H](O)/C=C/[C@@H]1[C@H]2c3cccc(CCCC(=O)[O-])c3O[C@H]2C[C@H]1O.[Na+]", "note": "[CTO1681, (+)-[1R, 2R, 3aS, 8bS]-2,3,3a,8b-tetrahydro-2-hydroxy-1-[(E)-(3S,4S)-3-hydroxy-4-methyl-1-octen-6-ynyl)-1Hcyclopenta[b]benzofuran-5-butanoic acid, monosodium salt]", "values": [{"measurement": "Cytokine production versus control group", "setting": "listed as CT01681, monosodium salt", "result": "lower undesired cytokine production"}, {"measurement": "Cytokine production versus control group", "setting": "monosodium salt", "result": "superior to dexamethasone"}]}]}
